From patent US7507792B2, “MDA-7 proteins and methods of use thereof” (The Trustees of Columbia University In The City of New York, priority 1993, dated 2009) come the findings set out here.

Assay [1] concerns H0-1 human melanoma cell line. In words: 96-h growth suppression (cell number by Coulter Counter). The note with it: H0-1 cells, degree of initial 96 hr growth suppression versus untreated control. The assay is classed as cell-based. As to the method: FIG. 1A-B Effect of continuous exposure to various growth and differentiation modulating agents on the 96-h growth of the human melanoma cell line, H0-1. Cells were seeded at 5×10^4/35-mm tissue culture plate and 24 h later the medium was changed with the indicated compounds. Cell numbers were determined by Coulter Counter after 96-h growth. Further details can be found in Materials and Methods. The abbreviations and the concentrations of test compounds uses: IFN-β+MEZ (recombinant human fibroblast interferon+mezerein)) (2,000 U/ml+10 ng/ml); MPA+MEZ (mycophenolic acid+MEZ) (3.0 μM+10 ng/ml); RA+MEZ (trans-retinoic acid+MEZ) (2.5 μM+10 ng/ml); IFN-β+IFN-G (IFN-β+recombinant human gamma interferon) (1,000 U/ml+1,000 U/ml); MEZ (10 ng/ml); MPA (3.0 μM); IFN-G (2,000 U/ml); IFNβ (2,000 U/ml); RA (2.5 μM); and Control (media only).
The H0-1 cell line is a melanotic melanoma derived from a person and was used between passage 100 and 125 (6,8,13). H0-1 cells were kindly provided by Dr. Beppino C. Giovanella, Stehlin Foundation for Cancer Research, Houston, Tex. […] Total cell numbers were determined after days 4, 7, 14, and 21, using a ZM Coulter Counter, and viable cell numbers were determined by trypan blue dye exclusion (6). […]

For a further assay, the system named is mda-7. Description: mda-7 expression (Northern blotting, RT-PCR). The assay is classed as cell-based, human. The note with it: H0-1. Here is the method:
The mass excision of the library was performed using ExAssist helper phage as described above. The SOLR strain of Escherichia coli and cDNA phagemids were mixed at 37° C. for 15 min and plated onto LB plates containing ampicillin and IPTG/X-gal. White colonies were chosen at random, isolated and grown in LB medium. Plasmid minireps and restriction enzyme digestions were performed to confirm the presence of inserts. The inserts were isolated and used as robes for Northern blotting analysis (5,25). […] Radiolabeled probes were generated by random oligonucleotide priming (25). Prehybridization, hybridization, posthybridization washes, and autoradiography were performed as described (5,18,25).

Another assay concerns wild-type p53 protein. Description: Immunoprecipitation of p53 in H0-1 cells. The assay is classed as cell-based, human. The settings on record: IFN-β 2000 units/ml, MEZ 10 ng/ml. Here is the method: (§1) Immunoprecipitation analyses were performed as described previously (Duigou et al., 1991; Su et al., 1993; Jiang et al., 1994b). Logarithmically growing H0-1 cells were either untreated or treated for 24, 48, 72 or 96 h with IFN-β (2000 units/ml), MEZ (10 ng/ml) or IFN-β+MEZ (2000 units/ml+10 ng/ml) in 10-cm plates. Cultures were starved of methionine for 1 h at 37° C. in methionine-free medium, cells were concentrated by pelleting and labeled for 1 h (p53) or 4 h (p21 and Actin) at 37° in 1 ml of the same medium with 100 μCi of [^35S] (NEN; Express ^35S). After labeling, the cells were washed twice with ice-cold phosphate-buffered saline and lysed for 1 h on ice by the addition of RIPC (20 mM Tris-base, pH 7.5, 500 mM NaCl, 0.05% Nonidet P-40, 100 μg/ml phenylmethylsulfonyl fluoride and 0.02% sodium azide). The lysate was clarified by centrifugation in an Eppendorf microfuge at 10,000×g for 10 min at 4° C. H0-1 samples containing 4×10^6 counts were incubated with 2 μg of p53 monoclonal antibody (Ab1; PAb421) (Oncogene Sciences), WAF1/CIP1 (C-19) (Santa Cruz Biotechnology) (or MDA-6 peptide-derived) rabbit polyclonal IgG or actin monoclonal antibody (Oncogene Sciences) with rocking at 4° C. for 24 h. Labeled cell lysates were also prepared from F0-1, L0-1, SH-1, WM239, FM516-SV, SW480, MeWo, human skin fibroblasts and Saos-2 cells. […]

The next assay has as its system p21 protein. In words: Immunoprecipitation of p21 in H0-1 cells. The settings on record: IFN-β 2000 units/ml, MEZ 10 ng/ml. The assay is classed as cell-based, human. As to the method:
as §1

B1: IFN-β: Recombinant human IFN-β, with a serine substituted for a cysteine at position 17 of the molecule (protein)
chain: MSYNLLGFLQRSSNFQCQKLLWQLNGRLEYCLKDRMNFDIPEEIKQLQQFQKEDAALTIYEMLQNIFAIFRQDSSSTGWNETIVENLLANVYHQINHLKTVLEEKLEKEDFTRGKLMSSLHLKRYYGRILHYLKAKEYSHCAWTIVRVEILRNFYFINRLTGYLRN
Turning to B1, the “Growth Suppression (reversible)” value in assay [1] (Table 1) and in assay [1] (Table 2) was 3+ (3+ = ~50 to 60% reduction in growth in comparison with untreated control cultures) each time. Moreover, the mda-7 expression result is “increased mda-7 expression” with mda-7 (24 hours, doses of FIG. 19, phenyl butyrate 24 hours, 4 days or 7 days) and “Increased expression” in the assay with mda-7 (96 hours, doses of FIG. 15 legend). The “wild-type p53 protein level” value in the assay on wild-type p53 protein (24 h) is “no significant change”; in the assay with wild-type p53 protein (over 48, 72, 96 h) it was “no change”. In addition, the “p21 mRNA and protein” value in the assay on p21 protein (24 h) is “induced”. Further, the p21 protein level entry with p21 protein (over 48, 72, 96 h) is listed as “Increases”.
